Results reported in US20110020470A1, “METHODS AND COMPOSITIONS FOR TREATING CANCER” (SOUND PHARMACEUTICALS INCORPORATED, priority 2005, published 2011).

System: mammalian ovarian cancer cell lines
Assay: MTT cytotoxicity study, statements over all ovarian cancer cell lines tested
Type: cell-based
Experimental: Each of the cell lines listed above was plated at a density of 3,500 cells per well in 96 well plates and incubated at 37° C. for 24 hours. Each of the cell lines was treated with 50 μl of either ebselen, allopurinol, or ebselen plus allopurinol at concentrations ranging from 0 to 100 μM and incubated for one hour. After the one hour incubation, 50 μl of cisplatin and paclitaxel were added to the cell lines at the various concentrations shown in TABLE 2 to achieve an IC50 in the absence of other drugs. The cells were then incubated at 37° C. in 5% CO2 in the presence of the cisplatin and paclitaxel for an additional 67-72 hours. Control wells were included as follows: no drug, ebselen, allopurinol, ebselen and allopurinol, and cisplatin/paclitaxel.
After the 67-72 hour incubation period, 10 μl of MTT (3-(4,5-dimethlythiazol-2-yl)-2,5-diphenyl […] bromide) working solution was added to each well (based on the instructions in the Chemicon MTT Cell Growth Kit Cat #CT01) and the cells were incubated for 4 hours. 100 μl of isopropanol/HCl solution was then added to each well and absorbance at 570 nm was measured. The results of the MTT assay for the different ovarian cancer cell lines tested are shown in FIGS. 9A-16C and are summarized below in TABLE 3.

Oc1ncnc2[nH]ncc12 [allopurinol]
effect of allopurinol on the chemotherapeutic effect of ebselen: did not reduce the chemotherapeutic effect of ebselen
